## Measured melting point values of organic chemicals

The melting point is given in degrees Celsius.

structure (SMILES)	mp (°C)
Cc1nc2c(O)cccn2c(=O)c1CCO	147.5
CCCCCCCCCC(=O)OCC(C)OC(=O)CCCCCCCCC (stereo unspecified)	-6
Nc1ccc2c(c1)NC(=O)CS2	220
CN1c2ccccc2C(C)(C)C12C=Cc1cc([N+](=O)[O-])ccc1O2 (stereo unspecified)	180
Nc1cccc(S(=O)(=O)N2CCCCCC2)c1	75
O=C(O)C1CC(=O)N(c2ccc(Cl)cc2)C1 (stereo unspecified)	150
NC(=O)c1c(N)sc2c1CCCCC2	197
CC(C)(C(=O)O)c1ccc(C#CCCN2CCC(C(O)(c3ccccc3)c3ccccc3)CC2)cc1	179
CCN(CC)S(=O)(=O)c1ccc(NC)c(N)c1	120
COc1nc2ccc(Br)cc2cc1[C@@H](c1ccccc1)[C@@](O)(CCN(C)C)c1cccc2ccccc12	118
O=C(O)C1CC(=O)N(c2cccc3ccccc23)C1 (stereo unspecified)	208
N#CCC(=O)OCC(COC(=O)CC#N)(COC(=O)CC#N)COC(=O)CC#N	177.6
COC(=O)COc1ccc(C)cc1OCC(=O)OC	40
O=C(O)CNC(=O)c1ccc(F)cc1	170
CC(C)(O)C(=O)c1ccc(Cc2ccc(C(=O)C(C)(C)O)cc2)cc1	84.3
Brc1ccc(Oc2c(Br)c(Br)c(Br)c(Br)c2Br)cc1	184
N#CC(=C1CCCCC1)c1ccccc1	-32.85
ON=C1c2ccccc2CCc2ccccc21	170
O=C(O)C1(c2cccc(Br)c2)CCOCC1	153
Clc1ccc(Oc2ccc(Cl)cc2Cl)cc1	50
CCC(C)C(=O)N(C)c1ccccc1 (stereo unspecified)	36
NC(=O)CCNC(=O)OCc1ccccc1	165
CCOC(=O)N1CCNC(c2ccccc2)C1 (stereo unspecified)	62.5
O=C(O)CCS(=O)(=O)c1ccc(Cl)cc1	182
CC(C)(C)OC(=O)Nc1ccc(CC(=O)O)cc1	154
CCOC(=O)CNc1ccc(F)cc1	75
CNC(=O)c1cccc(O)c1	109
Cc1ccc(C(=O)OC[C@@H]2O[C@H](n3cc(C)c(=O)[nH]c3=O)C[C@H]2OC(=O)c2ccc(C)cc2)cc1	198.7
Cc1cccc(-c2nc(CC(=O)O)cs2)c1	111
CN(C)C(=O)c1cccc(N)c1	85
CC(=O)Nc1cccc(S(=O)(=O)Cl)c1	79
CCn1c(-c2ccncc2)n[nH]c1=S	141
OCC1CC2CC1C1CCCC21 (stereo unspecified)	-31
Cn1c(-c2ccccc2)c(/C=C/C2=[N+](C)c3ccccc3C2(C)C)c2ccccc21.[Cl-]	167
NC(=O)c1ccc(F)c(N)c1	138
COc1ccccc1Nc1ncccc1C(=O)O	176
Cc1ccc(NS(=O)(=O)c2ccc(N)cc2)cc1C	151
Nc1c(C(=O)O)cnc2ccccc12	304
O=C(O)c1ccccc1Nc1ccc(OC(F)F)cc1	154
COc1ccccc1CNCCO	66
OCc1ccc(CCC(F)(F)C(F)(F)C(F)(F)C(F)(F)C(F)(F)C(F)(F)C(F)(F)C(F)(F)F)cc1	83
CC(C)CCNC(=O)CC(=O)NCCC(C)C	70
CN(C)c1ccc(C(=O)O)cc1[N+](=O)[O-]	199
COc1cc2c(cc1OC)C(c1ccccc1)N(C(=O)CCl)CC2 (stereo unspecified)	220
Cc1cc(Br)ccc1SCC(=O)O	126
CCCCC(CC)COP(=O)(O)O.OCCNCCO (stereo unspecified)	-63
Cc1cnn(C)c1	-45.8
CC(CC(=O)OCCN1C(C)(C)CC(OC(=O)CC(C)CC(C)(C)C)CC1(C)C)CC(C)(C)C (stereo unspecified)	-46
CCCSc1nc(Cl)c([N+](=O)[O-])c(Cl)n1	-71.1
COc1cc(NC(=O)CC#N)c(Cl)cc1Cl	201.9
CCOc1ccc(C2CCCN2)cc1 (stereo unspecified)	17
ClCc1nc(-c2ccccn2)no1	103
CCOc1ccc(/N=N/c2ccc(-c3ccc(/N=N/c4c(O)ccc5cc(S(=O)(=O)[O-])cc(S(=O)(=O)[O-])c45)c(C)c3)cc2C)cc1.[Na+].[Na+]	285
COc1cccc(N2CC(C(=O)O)CC2=O)c1 (stereo unspecified)	167

Excerpt, the final 8 entries:

{"smiles": "Cc1cnn(C)c1", "mp (°C)": "-45.8"}
{"smiles": "CC(CC(=O)OCCN1C(C)(C)CC(OC(=O)CC(C)CC(C)(C)C)CC1(C)C)CC(C)(C)C", "stereo": "stereo unspecified", "mp (°C)": "-46"}
{"smiles": "CCCSc1nc(Cl)c([N+](=O)[O-])c(Cl)n1", "mp (°C)": "-71.1"}
{"smiles": "COc1cc(NC(=O)CC#N)c(Cl)cc1Cl", "mp (°C)": "201.9"}
{"smiles": "CCOc1ccc(C2CCCN2)cc1", "stereo": "stereo unspecified", "mp (°C)": "17"}
{"smiles": "ClCc1nc(-c2ccccn2)no1", "mp (°C)": "103"}
{"smiles": "CCOc1ccc(/N=N/c2ccc(-c3ccc(/N=N/c4c(O)ccc5cc(S(=O)(=O)[O-])cc(S(=O)(=O)[O-])c45)c(C)c3)cc2C)cc1.[Na+].[Na+]", "mp (°C)": "285"}
{"smiles": "COc1cccc(N2CC(C(=O)O)CC2=O)c1", "stereo": "stereo unspecified", "mp (°C)": "167"}

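The OPERA project collected these measurements from public sources as training and test data for property models. A listed value is a point estimate from one report or more. Method and conditions are not stated for these values. A value may pool stereoisomers or salt forms, and the file does not say which form was measured. Unmarked limits or estimates from the upstream databases cannot be ruled out.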

Values as listed in the OPERA 2.9 repository of K. Mansouri.